Experimental findings from patent US20160067347A1, “APJ RECEPTOR AGONISTS AND USES THEREOF” (AMGEN INC., priority 2012, published 2016) are described below.

The assay has as its target T1, human APJ (Homo sapiens, UniProt P35414).
T1 construct: expressed in transfected cells
T1 sequence (P35414 1-380): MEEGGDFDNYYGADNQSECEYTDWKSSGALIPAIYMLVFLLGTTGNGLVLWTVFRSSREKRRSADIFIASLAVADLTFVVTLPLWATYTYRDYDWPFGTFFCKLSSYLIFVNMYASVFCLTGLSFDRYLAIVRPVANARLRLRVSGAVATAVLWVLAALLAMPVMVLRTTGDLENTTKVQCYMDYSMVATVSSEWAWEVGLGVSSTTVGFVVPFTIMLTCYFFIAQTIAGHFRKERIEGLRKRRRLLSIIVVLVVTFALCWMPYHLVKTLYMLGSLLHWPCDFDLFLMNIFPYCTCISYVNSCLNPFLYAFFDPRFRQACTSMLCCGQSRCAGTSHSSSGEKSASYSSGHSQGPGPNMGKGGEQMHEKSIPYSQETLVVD
As to the kind of experiment: cAMP assay, stable CHO cell line expressing human APJ. The format is cell-based. As to conditions: FIG. 5; cAMP seen with either human or rat APJ stable cell lines. The procedure:
Stable CHO cell lines expressing APJ were used for cAMP assays. The cells were incubated with stimulation buffer containing HANK's buffer, forskolin and 0.5 mM IBMX in the absence or presence of various concentrations' of peptides at 37° C. for 45 min. The cAMP level was determined using a cyclic AMP kit (DiscoverX) according to the manufacturer's instructions.
Additionally, the stimulation of cAMP can be seen using either human or rat APJ stable cell lines.

Turning to “3-((2-(3-(mPEG(20kDa))propylamino)-2-oxoethyl)thio)propanamide-[Leu65;hArg68;Cha69;Oic74;Nle75;4-Cl-F77]Apelin-13(65-77) [SEQ ID NO: 26]”, the “agonist activity relative to pyr apelin-13 (SEQ ID NO: 128)” value was “potent and act as a full agonist”.
